Measurements as given in ChEMBL document CHEMBL4152197, “Proteolysis Targeting Chimeras (PROTACs) of Anaplastic Lymphoma Kinase (ALK)” (Eur J Med Chem, 2018).

Test system: SU-DHL-1
Experiment: Growth inhibition of human SU-DHL1 cells after 3 days by luminescence-based CellTiter-Glo assay
Assay type: functional, cell-based

| Compound | growth inhibition (GI) |
| --- | --- |
| Cc1cc(Nc2ncc(Cl)c(Nc3ccccc3S(=O)(=O)C(C)C)n2)c(OC(C)C)cc1C1CCN(CC(=O)NCCNc2cccc3c2C(=O)N(C2CCC(=O)NC2=O)C3=O)CC1 (configuration not stated) | Dose-dependent effect |
| Cc1cc(Nc2ncc(Cl)c(Nc3ccccc3S(=O)(=O)C(C)C)n2)c(OC(C)C)cc1C1CCN(CC(=O)NCCOCCOCCOCCOCCOCCNc2cccc3c2C(=O)N(C2CCC(=O)NC2=O)C3=O)CC1 (configuration not stated) | Dose-dependent effect |
